{"source": "patent US5767096A", "about": "“Bromotiacumicin compounds” (Abbott Laboratories, priority 1996, dated 1998)", "format_in_all_cases": "cell-based", "key": {"[1]": {"system": "Bacteriodes thetaiotaomicron ATCC 29741", "test": "In vitro antibiotic activity (MIC) against anaerobes, agar dilution, Wilkins-Chalgren agar", "details": "anaerobe, ~10^5 organisms per spot, 37° C., ~48 hours", "procedure": "(§1) Optical rotations were measured on a Perkin-Elmer Model 241 polarimeter in a 10 cm cell. Fast atom bombardment mass spectra were measured on a Kratos MS-50 mass spectrometer. Ultraviolet spectra were recorded on a Perkin-Elmer Lambda 3B UV-visible spectrophotometer and infrared spectra on a Nicolet model 60SX FT-IR attached to a Nicolet computer. NMR spectra were acquired on either a General Electric GN500 or GN300 spectrometer. NMR spectral data are reported in Table 1 (following Example 6 below). Rf values reported were acquired on Analtech TLC plates developed with chloroform:methanol (9:1, v:v) and were visualized using ceric sulfate spray reagent. Melting points were determined on a Hoover Unimelt and are reported uncorrected. Minimal inhibitory concentrations were determined by twofold agar dilution. Brain heart infusion agar was used for aerobes and Wilkins-Chalgren agar for anaerobes.\n(§2) For primary screening of compounds of the invention against anaerobic bacteria such as Clostridium, minimal inhibitory concentrations (MICs) were determined by the following agar dilution method: Series of two-fold dilutions of the test compounds were added to Wilkins-Chalgren agar. The agar plates were inoculated with approximately 10^5 organisms per spot of each of the organisms to be tested. The inoculated agar plates were then incubated at 37° C. for approximately 48 hours. The MICs were determined as the minimal concentration of test compound (in […]) that inhibited visible growth."}, "[2]": {"system": "Bacteroides fragilis ATCC 25285", "test": "In vitro antibiotic activity (MIC) against anaerobes, agar dilution, Wilkins-Chalgren agar", "details": "anaerobe, ~10^5 organisms per spot, 37° C., ~48 hours", "procedure": "as §1, §2"}, "[3]": {"system": "Clostridium difficile ATCC 9689", "test": "In vitro antibiotic activity (MIC) against anaerobes, agar dilution, Wilkins-Chalgren agar", "details": "anaerobe, ~10^5 organisms per spot, 37° C., ~48 hours", "procedure": "as §1, §2"}, "[4]": {"system": "Clostridium difficile ATCC 17857", "test": "In vitro antibiotic activity (MIC) against anaerobes, agar dilution, Wilkins-Chalgren agar", "details": "anaerobe, ~10^5 organisms per spot, 37° C., ~48 hours", "procedure": "as §1, §2"}, "[5]": {"system": "Clostridium difficile 2532", "test": "In vitro antibiotic activity (MIC) against anaerobes, agar dilution, Wilkins-Chalgren agar", "details": "anaerobe, ~10^5 organisms per spot, 37° C., ~48 hours", "procedure": "as §1, §2"}, "[6]": {"system": "Escherichia coli JUHL", "test": "In vitro antibiotic activity (MIC), agar dilution, brain heart infusion agar", "details": "~10^4 organisms per spot, 37° C., ~20 hours", "procedure": "as §1\nas §2, with “against selected aerobic microorganisms,” for “against anaerobic bacteria such as Clostridium,”, “to brain heart infusion” for “to Wilkins-Chalgren”, “approximately 10^4” for “approximately 10^5”, “tested. These” for “tested. The”, “approximately 20” for “approximately 48”"}, "[7]": {"system": "Streptococcus pyogenes EES61", "test": "In vitro antibiotic activity (MIC), agar dilution, brain heart infusion agar", "details": "~10^4 organisms per spot, 37° C., ~20 hours", "procedure": "as §1\nas §2, with “against selected aerobic microorganisms,” for “against anaerobic bacteria such as Clostridium,”, “to brain heart infusion” for “to Wilkins-Chalgren”, “approximately 10^4” for “approximately 10^5”, “tested. These” for “tested. The”, “approximately 20” for “approximately 48”"}, "[8]": {"system": "Enterococcus faecium ATCC 8043", "test": "In vitro antibiotic activity (MIC), agar dilution, brain heart infusion agar", "details": "~10^4 organisms per spot, 37° C., ~20 hours", "procedure": "as §1\nas §2, with “against selected aerobic microorganisms,” for “against anaerobic bacteria such as Clostridium,”, “to brain heart infusion” for “to Wilkins-Chalgren”, “approximately 10^4” for “approximately 10^5”, “tested. These” for “tested. The”, “approximately 20” for “approximately 48”"}, "[9]": {"system": "Staphylococcus aureus ATCC 6538P", "test": "In vitro antibiotic activity (MIC), agar dilution, brain heart infusion agar", "details": "~10^4 organisms per spot, 37° C., ~20 hours", "procedure": "as §1\nas §2, with “against selected aerobic microorganisms,” for “against anaerobic bacteria such as Clostridium,”, “to brain heart infusion” for “to Wilkins-Chalgren”, “approximately 10^4” for “approximately 10^5”, “tested. These” for “tested. The”, “approximately 20” for “approximately 48”"}, "[10]": {"system": "Staphylococcus epidermidis 3519", "test": "In vitro antibiotic activity (MIC), agar dilution, brain heart infusion agar", "details": "~10^4 organisms per spot, 37° C., ~20 hours", "procedure": "as §1\nas §2, with “against selected aerobic microorganisms,” for “against anaerobic bacteria such as Clostridium,”, “to brain heart infusion” for “to Wilkins-Chalgren”, “approximately 10^4” for “approximately 10^5”, “tested. These” for “tested. The”, “approximately 20” for “approximately 48”"}}, "data": [{"compound": "4'\",6'\"-didechloro-4'\"-bromotiacumicin B [Ex. 5]", "values": [{"measurement": "MIC", "setting": "[1]", "result": "> 128", "unit": "µg/mL"}, {"measurement": "MIC", "setting": "[2]", "result": "> 128", "unit": "µg/mL"}]}, {"compound": "4'\",6'\"-didechloro-4'\"-bromotiacumicin C [Ex. 6]", "values": [{"measurement": "MIC", "setting": "[1]", "result": "> 128", "unit": "µg/mL"}, {"measurement": "MIC", "setting": "[2]", "result": "> 128", "unit": "µg/mL"}]}, {"compound": "CCc1c(Cl)c(O)c(Cl)c(O)c1C(=O)O[C@H]1[C@H](O)[C@H](OC)[C@H](OC/C2=C\\C=C\\C[C@H](O)/C(C)=C/[C@H](CC)[C@@H](O[C@@H]3OC(C)(C)[C@@H](OC(=O)C(C)C)[C@H](O)[C@@H]3O)/C(C)=C/C(C)=C/C[C@@H]([C@@H](C)O)OC2=O)O[C@@H]1C", "note": "[Tiacumicin B, tiacumicin B, reference compound]", "values": [{"measurement": "MIC", "setting": "[1]", "result": "> 128", "unit": "µg/mL"}, {"measurement": "MIC", "setting": "[3]", "result": 0.06, "unit": "µg/mL"}, {"measurement": "MIC", "setting": "[4]", "result": 0.12, "unit": "µg/mL"}, {"measurement": "MIC", "setting": "[2]", "result": "> 128", "unit": "µg/mL"}, {"measurement": "MIC", "setting": "[5]", "result": 0.12, "unit": "µg/mL"}, {"measurement": "MIC", "setting": "[6]", "result": "> 200", "unit": "µg/mL"}, {"measurement": "MIC", "setting": "[7]", "result": 6.2, "unit": "µg/mL"}, {"measurement": "MIC", "setting": "[8]", "result": 1.56, "unit": "µg/mL"}, {"measurement": "MIC", "setting": "[9]", "result": 0.78, "unit": "µg/mL"}, {"measurement": "MIC", "setting": "[10]", "result": 1.56, "unit": "µg/mL"}]}]}
